Only a part of the results on these compounds is given; other tests are left out.
Assays:
[1] = system: Rhodococcus rhodochrous 11Y whole cells; assay: Whole cell incubation of RDX with cells of 11Y; settings: 300 μM RDX, 30° C., 12 hour period, FIG. 2
[2] = system: RDX degrading enzymic activity (crude extract of Rhodococcus rhodochrous 11Y); assay: Nitrite release from RDX by crude extract (Griess reagent); settings: 50 μM RDX, 5 mM DTT
[3] = system: RDX degrading enzymic activity (membrane fraction of Rhodococcus rhodochrous 11Y); assay: RDX degradation by membrane fraction, HPLC / nitrite release; settings: 50 μM RDX, 30° C.
[4] = system: RDX degrading enzymic activity (cell free extract of Rhodococcus rhodochrous 11Y); assay: RDX degradation by cell free (crude) extract, disappearance of RDX by HPLC; settings: 30° C., 50 mM Tricine, 50 μM RDX, 5 mM DTT, 0 to 60 min

## O=[N+]([O-])N1CN([N+](=O)[O-])CN([N+](=O)[O-])C1
[1]
  concentration of formaldehyde: also increased
  concentration of nitrite: seen to increase
[2]; crude extract (French press), Tricine pH 8.0
  RDX degradation (TLC) and nitrite production: RDX degradation and concomitant nitrite production were observed
[2]; crude extract, 30° C., 0 to 60 min, FIG. 1
  concentration of nitrite (Griess reagent): seen to increase
[3]
  nitrite production: produced nitrite
[3]; 50 mM Tricine, 5 mM DTT, 0 to 60 min
  concentration of RDX (HPLC): seen to decrease with elapsed time
[4]
  concentration of RDX (HPLC): seen to decrease
